Like-named read-outs stand apart in the source and are kept apart here.

Protein sequences, listed by entry. Tags and fused reporters are not part of them. Lines headed by an entry give the natural chain unless they say otherwise; changes in a name come on top.
UniProt P20292: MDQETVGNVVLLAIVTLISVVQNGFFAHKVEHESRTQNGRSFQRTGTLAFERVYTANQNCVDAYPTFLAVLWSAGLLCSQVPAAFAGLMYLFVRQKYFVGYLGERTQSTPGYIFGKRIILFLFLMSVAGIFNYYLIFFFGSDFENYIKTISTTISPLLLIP

This assay concerns the target human FLAP (Homo sapiens (Human), UniProt P20292). As to the kind of experiment: FLAP binding assay (HTRF format). Here is the method:
The ability of the compounds of the present invention to treat a FLAP-mediated disease and/or disorder, or associated symptoms or complications thereof, was determined using the following procedures. Binding assay data represent the average value obtained from two different assay plates, with samples run in duplicate on each plate. Human whole blood assay data represent a single replicate on an assay plate using whole blood from at least one healthy donor.
Data are expressed as a HTRF ratio.
In general terms: TR-FRET usually uses a lanthanide donor and a delayed reading to cut background.

The mark [1] stands for this setting: human FLAP wild type membranes, HTRF format, Table 6 (additional runs).
The mark [2] stands for this setting: human FLAP-containing membranes, HTRF ligand 25 nM, 2 h, average of two plates, duplicates, read-out: FLAP Binding wild type HTRF Ki.

The Ki is a dissociation constant, usually derived from enzyme kinetics or from competition with a known ligand. Consider “5-(4-Cyclobutyl-2-fluoro-3-methoxyphenyl)pyridin-2-amine hydrochloride salt [Example 179]”, for which the inhibition constant (Ki) runs as follows: under setting [1], approximately 354 nM; under setting [2], 750 nM.

In the case of `Nc1cnc(-c2ccc(C3CCC3)c(OCC(O)CNc3ncccn3)c2F)cn1` (racemic) [Example 56, racemic 1-(3-(5-Aminopyrazin-2-yl)-6-cyclobutyl-2-fluorophenoxy)-3-(pyrimidin-2-ylamino)propan-2-ol], the Ki amounted to 81.9 nM under setting [1] and 82 nM under setting [2].

The compound `NC(=O)c1ccc(Oc2c(C3CCC3)ccc(-c3cnc(N)cn3)c2F)cc1` [Example 155, 4-[3-(5-Aminopyrazin-2-yl)-6-cyclobutyl-2-fluorophenoxy]benzamide] had a Ki under setting [1] of 4.9 nM.
